Measurements as given in article PMC8479189 (Frontiers in Oncology, 2021).

Target: T1, human PD-L2.ECD.His (human, UniProt Q9BQ51 20-220)
T1 construct: extracellular domain of human PD-L2
T1 sequence (looked up): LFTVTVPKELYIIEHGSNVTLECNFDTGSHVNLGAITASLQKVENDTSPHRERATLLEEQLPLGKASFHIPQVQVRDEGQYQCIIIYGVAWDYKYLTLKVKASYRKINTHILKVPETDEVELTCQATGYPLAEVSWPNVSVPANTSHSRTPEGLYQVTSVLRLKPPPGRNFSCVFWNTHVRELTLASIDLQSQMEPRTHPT
Test: ELISA; plates coated with human PD-1-mFc, blocked with 2% BSA in PBS; human PD-L2.ECD.His (5 μg/mL) pre-mixed with antibodies (66.7 to 0.001 nmol/L), 1 h at room temperature; HRP-labeled goat anti-His detection
Details: both partners purified

B1: human PD-1-mFc (Fc fusion, UniProt Q15116 25-170, looked up)
chain: LDSPDRPWNPPTFSPALLVVTEGDNATFTCSFSNTSESFVLNWYRMSPSNQTDKLAAFPEDRSQPGQDCRFRVTQLPNGRDFHMSVVRARRNDSGTYLCGAISLAPKAQIKESLRAELRVTERRAEVPTAHPSPSPRPAGQFQTLV
notes: extracellular domain of human PD-1 protein; also called human PD-1.ECD.mFc
B1: binds.
